G9a inh = inhibitors of human histone lysine methyltransferase G9a. Q96KQ7. G9a H3K9 monomethylation, AlphaScreen, 2 h. Potency, µM (series often up to 102 µM), inactives show top-dose activity, negative = inhibition, usual class: inhibitors. 8.8% of 350,000 active. AID 504332; also: potency is read from the fitted curve at half-maximal effect; % is scaled to controls: 0 for no effect and ±100 for the full control effect; nearly all actives have a fitted effect of over 75% in size
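Quantitative HTS format: methyltransferase activity on a biotin-tagged H3K9 peptide is measured by AlphaScreen, using a rabbit anti-monomethyl-H3K9 antibody with streptavidin donor and anti-IgG acceptor beads. Final levels are 20 nM enzyme, 500 nM peptide, 20 uM SAM; 2 h RT.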
KDM4E inh = JMJD2E (human) inhibition; JMJD2E catalytic domain, FDH-coupled NADH fluorescence (FDH is formaldehyde dehydrogenase); 1.6% of 230,000 active; Potency, µM (doses to about 57.1 µM), for inactives: at the highest dose activity change, negative = inhibition, most hits filed as inhibitors; active = well fitted inhibition curve with a large enough effect, not every such curve was filed as active; inconclusive = small, poorly fitted or top-dose-only effect, or another doubt; inactive = no such curve, though single readings can be large or run the other way;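 also: potency is read from the fitted curve at half-maximal effect; 0% = wells with enzyme and -100% = buffer wells without enzyme; nearly all actives have a fitted effect of over 50% in size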
LMNA splice mod = changes lamin A minigene splicing in HeLa cells. Potency, µM (series often up to 46.1 µM), for the others: top-dose ratio change, negative = inhibition, hits mostly inhibitors. 0.01% of 200,000 active. HeLa LMNA splicing GFP/RFP minigene ratio, 48 h. AID 1487; active = well fitted inhibition curve with a large enough effect in the signal ratio, with a control signal flat, not every such curve was filed as active; inconclusive = small, poorly fitted or top-dose-only effect, or effect the other way, or a change in a side signal; the % refers to the signal ratio; also: potency is read from the fitted curve at half-maximal effect; % is scaled to controls: 0 for no effect and ±100 for the full control effect
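Read-out is the ratio of GFP to DsRed2 object intensity, acquired by 488 nm laser-scanning cytometry on HeLa lamin A-EGFP minigene reporter cells. Compound incubation 48 hrs at 37 °C in Opti-MEM with 2% FBS; DMSO 0.5% final.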
miR-21 FLuc = raises the signal of a miR-21 reporter | HeLa miR-21 FLuc reporter, luciferase, 48 h | Potency, µM (highest dose often 38.3 µM), without a hit: at the top dose reporter change, positive = more light | 340,000 tested, under 10 active; active = well fitted rising curve with a large enough effect; inconclusive = small, poorly fitted or top-dose-only effect; inactive = no such curve, though single readings can be large or run the other way;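 note: % of control where 0% means no effect; miR-21 action dims this reporter so a rising signal means less miR-21 action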
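Luminescence from a firefly luciferase reporter carrying a miR-21 binding site downstream, stably expressed under a CMV promoter in HeLa cells that make miR-21 endogenously, reports miRNA modulation after 48 h compound exposure up to approximately 40uM final.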
Sfp inh = inhibitors of Bacillus subtilis Sfp phosphopantetheinyl transferase | Biochemical Sfp PPTase activity, qHTS | AID 1490 | Potency, µM, for the others: max response, negative = inhibition, hits mostly inhibitors | actives 3.5% (n = 310,000) | Q9F4F7; active = well fitted inhibition curve with a large enough effect; inconclusive = small, poorly fitted or top-dose-only effect, or another doubt; inactive = no such curve, though single readings can be large or run the other way;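 also: the enzyme is Sfp with the accession as filed and its product quenches rhodamine fluorescence; potency is read from the fitted curve at half-maximal effect; 0% = enzyme reaction without inhibitor and -100% = no enzyme wells; top concentration of the series not given in the record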
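After 15 min at room temperature with compound, 15 nM Sfp received 5 uM rhodamine-CoA plus 12.5 uM BHQ-2-ybbR (50 mM Hepes pH 7.6, 10 mM MgCl2). Rate came from the fluorescence difference over 30 min, ex 525/em 598 nm.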
ALDH1A1 block = blocks purified human ALDH1A1 activity | Purified ALDH1A1, NADH fluorescence, propionaldehyde substrate | Potency, µM (top dose mostly 75.3 µM), for the others: at the highest dose activity, negative = inhibition, actives largely listed as inhibitors | 7.3% of 220,000 active | AID 1030; active = well fitted inhibition curve with a large enough effect, not every such curve was filed as active; inconclusive = small, poorly fitted or top-dose-only effect, or another doubt; inactive = no such curve, though single readings can be large or run the other way;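 also: potency is read from the fitted curve at half-maximal effect; plate controls were no enzyme wells and a reference inhibitor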
Starred values were filed as active, the others as inactive; ? = inconclusive; . = no result given; [ ] = remark or other dose. Only some compounds are listed: those with a hit (about 13% of all), similar ones and a draw of the others. Unless noted, calls follow the shape of the dose curve; as a rule, active = well fitted curve in the direction sought with a large enough effect; inconclusive = small, poorly fitted or top-dose-only effect, or another doubt; inactive = no such curve, though single readings can be large; an effect the other way counts as inactive or inconclusive.

Each structure is followed by: Sfp inh | miR-21 FLuc | ALDH1A1 block | KDM4E inh | LMNA splice mod | G9a inh
> O=C1/C(=C/c2ccc(N3CCOCC3)o2)SC(=Nc2ccccc2)N1CCc1c[nH]c2ccccc12
→ 2.8µM* | ? | ? | -4% | ? | ?
> COc1cc(/C=C2\SC(=Nc3ccccc3)N(CCc3c[nH]c4ccccc34)C2=O)ccc1OC(C)C(=O)O (stereo not drawn)
→ -27% | -1% | 6% | 3% | ? | 6.3µM*
> O=C(CC1SC(=Nc2ccccc2)N(CCc2c[nH]c3ccccc23)C1=O)Nc1ccccc1F (stereo not drawn)
→ ? | 4% | -10% | -7% | -29% | ?
> COc1ccc(N=C2S/C(=C\c3ccc(OC(C)C(=O)O)c(OC)c3)C(=O)N2CCc2c[nH]c3ccccc23)cc1 (stereo not drawn)
→ ? | -1% | 14µM* | -8% | -4%[46 µM] | 35µM*
> Cc1ccc2c(c1)c(=O)c1ccccc1n2CCCC(=O)Nc1c(F)cccc1F
→ . | 0% | . | . | . | 8%[59 µM]
> CCc1ccc(NC(=O)C(=O)NCC(c2ccc3c(c2)OCO3)N2CCOCC2)cc1 (stereo not drawn)
→ . | -1% | . | . | 9%[46 µM] | 26%[59 µM]
> c1ccc(CNc2ncncc2-c2ccoc2)cc1
→ -7% | . | ? | . | ? | 4%[0.501 µM]
> Cc1ccc(NC(=O)Cn2ccsc2=N)c([N+](=O)[O-])c1
→ 11% | 7% | 7.1µM* | -5% | . | -23%
> Cc1cc(C)c(NC(=O)/C=C\C(=O)O)c([N+](=O)[O-])c1
→ ? | -1% | 10µM* | -4% | -7% | 3.5µM*
> O=C(O)/C=C\C(=O)Nc1cc(O)ccc1[N+](=O)[O-]
→ 0% | -4% | . | 0% | . | ?

Two of the compounds above, with tabs:
compound	Sfp inh	miR-21 FLuc	ALDH1A1 block	KDM4E inh	LMNA splice mod	G9a inh
COc1cc(/C=C2\SC(=Nc3ccccc3)N(CCc3c[nH]c4ccccc34)C2=O)ccc1OC(C)C(=O)O (stereo not drawn)	-27%	-1%	6%	3%	?	6.3µM*
O=C(CC1SC(=Nc2ccccc2)N(CCc2c[nH]c3ccccc23)C1=O)Nc1ccccc1F (stereo not drawn)	?	4%	-10%	-7%	-29%	?

Continuation:
Each structure is followed by: Sfp inh | miR-21 FLuc | ALDH1A1 block | KDM4E inh | LMNA splice mod | G9a inh
> O=C(Nc1ccc(Cl)cc1F)C1CC1c1ccccc1 (stereo not drawn)
→ 13% | -21% | . | . | . | .
> Cc1ccc(NC(=O)C2CC2c2ccccc2)c([N+](=O)[O-])c1 (stereo not drawn)
→ -11% | -47% | . | . | . | 40µM*
> Cc1ccc(NC(=O)/C=C\C(=O)O)c([N+](=O)[O-])c1
→ -7% | -7% | 13µM* | 1% | 1% | 40µM*
> O=C(Cc1ccc(NC(=O)N2CCSc3ncccc32)cc1)NCc1ccccc1
→ . | -2% | . | . | . | -5%[59 µM]
> COCC(=O)Nc1c(C(=O)Nc2ccc(C)cc2)oc2ccccc12
→ . | -35% | . | . | . | -7%[59 µM]
> CC(=O)c1cc2c(cc1N/C(=N/S(=O)(=O)c1ccc(C)cc1)c1ccc(F)cc1)OCO2
→ . | -1% | . | . | 3%[46 µM] | -2%[59 µM]
> COc1ccc(CCNC(=O)CSC2=Nc3ccccc3C3=NC(CCC(=O)NCc4ccccc4)C(=O)N23)cc1OC (stereo not drawn)
→ . | 0% | . | . | 11%[46 µM] | -1%[59 µM]
> O=C(Nc1ccccc1N1CCCC1)C1CCN(C(=O)c2ccc(Cl)cc2)CC1
→ . | . | . | . | . | 50µM*
> O=C(Nc1ccccc1N1CCCC1)C1CCN(C(=O)c2ccc(F)cc2)CC1
→ . | . | . | . | . | 50µM*
> N#Cc1ccsc1NC(=O)C1CCN(C(=O)c2ccc(Cl)cc2)CC1
→ . | . | . | . | . | 50µM*

Gathered by group, the entries above containing a furan ring, fused or not (three)
Each structure is followed by: Sfp inh | miR-21 FLuc | ALDH1A1 block | KDM4E inh | LMNA splice mod | G9a inh
> O=C1/C(=C/c2ccc(N3CCOCC3)o2)SC(=Nc2ccccc2)N1CCc1c[nH]c2ccccc12
→ 2.8µM* | ? | ? | -4% | ? | ?
> c1ccc(CNc2ncncc2-c2ccoc2)cc1
→ -7% | . | ? | . | ? | 4%[0.501 µM]
> COCC(=O)Nc1c(C(=O)Nc2ccc(C)cc2)oc2ccccc12
→ . | -35% | . | . | . | -7%[59 µM]

(more compounds)
Each structure is followed by: Sfp inh | miR-21 FLuc | ALDH1A1 block | KDM4E inh | LMNA splice mod | G9a inh
> COc1ccc(CN(C)c2ccc(-c3nc(-c4ccc(OC)c(OC)c4)no3)cc2[N+](=O)[O-])cc1
→ . | 4% | . | . | . | -6%[59 µM]
> Cc1ccc(NC(=O)C2CCCN(S(=O)(=O)c3c(C)nn(C)c3C)C2)c(C)c1 (stereo not drawn)
→ . | -4% | . | . | . | 9%[59 µM]
> COc1ccc(CCNC(=O)Cn2nnc(C(=O)Nc3cccc(C)c3C)c2N)cc1OC
→ 9% | 10% | . | . | . | 20%
> CCc1ccc2occ(CC(=O)Nc3ccc(OC)c(Cl)c3)c2c1
→ . | -2% | . | . | . | -4%[59 µM]
> CCOc1ccc(NC(=O)Cn2c(=O)n(Cc3ccc(C(=O)NCc4ccc(C)cc4)cc3)c(=O)c3ccccc32)cc1
→ . | 0% | . | . | . | -29%[59 µM]
> Cc1cccc([C@H]2[C@@H]3C=CCC[C@@H]3C(=O)N2Cc2ccccc2)c1
→ ? | . | 28µM* | . | . | -22%
> Cc1ccc(-c2cccc(C3CC=CC4C3C(=O)N(Cc3ccccc3)C4c3ccc4ccccc4c3)c2)cc1 (stereo not drawn)
→ 13% | -1% | . | -10% | . | 13%[59 µM]

Source: PubChem BioAssay
